Measurements: US20040105895A1, “Monovalent-selective cation exchangers as oral sorbent therapy” (priority 2001, published 2004)

Test: Tolerability of sorbent-supplemented feed in rats (food intake, weight, stool, post-mortem)
Conditions: rat, in vivo

For “zirconium-silicate [zirconium-silicate sorbent]”, the “Hemoccult / hemoglobin test of red spots in stool” value was “negative”, the gross post-mortem analysis was “entirely normal” and the “histologic appearance of the mucosa of small bowel and large bowel” value was “normal”.
